Values of other authors in patent US20190309053A1, “PROLONGATION OF SURVIVAL OF AN ALLOGRAFT BY INHIBITING COMPLEMENT ACTIVITY” (Alexion Pharmaceuticals, Inc., priority 2004, published 2019).

Test system: terminal complement activity
Details: cited from earlier work
[1] = PNH patients, 900 mg/patient once every 12-14 days

For “eculizumab: whole anti-C5 monoclonal antibody specific to human complement C5”, the “duration for which the administered dose blocks the effects of complement” value (900 mg dose) is listed as “approximately two weeks”, the “symptoms of PNH” value [1] is listed as “greatly inhibited” and the terminal complement activity [1] is listed as “completely and consistently block”. The ill effects (intravenous administration to humans in a study of PNH) was “without ill effects”.
